Results published in PubChem BioAssay (NCI).
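Five concentrations, 48 hours, 96-well plates. GI50 marks 50% less growth. TGI marks complete inhibition of growth.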

Columns and labels:
Assay in all cases: NCI-60 cell line screen, 48 h; in the data active means GI50 below about 0.43 µM; inactive means the rest
A549 NSCLC = test system: A549 NSCLC
MDA-N = test system: MDA-N
OVCAR-5 ovarian = test system: OVCAR-5 ovarian
CCRF-CEM leukemia = test system: CCRF-CEM leukemia
MOLT-4 leukemia = test system: MOLT-4 leukemia
T-47D breast = test system: T-47D breast
SK-MEL-2 melanoma = test system: SK-MEL-2 melanoma
SNB-19 CNS = test system: SNB-19 CNS
RPMI-8226 leukemia = test system: RPMI-8226 leukemia
OVCAR-8 ovarian = test system: OVCAR-8 ovarian
COLO 205 colon = test system: COLO 205 colon
MDA-MB-231 breast = test system: MDA-MB-231 breast
M14 melanoma = test system: M14 melanoma
HS 578T breast = test system: HS 578T breast
U251 CNS = test system: U251 CNS
MCF7 breast = test system: MCF7 breast
HOP-92 NSCLC = test system: HOP-92 NSCLC
KM12 colon = test system: KM12 colon
LOX IMVI melanoma = test system: LOX IMVI melanoma
SN12C renal = test system: SN12C renal
UACC-257 melanoma = test system: UACC-257 melanoma
MDA-MB-435 = test system: MDA-MB-435
MALME-3M melanoma = test system: MALME-3M melanoma
HOP-62 NSCLC = test system: HOP-62 NSCLC
BT-549 breast = test system: BT-549 breast
A498 renal = test system: A498 renal
UO-31 renal = test system: UO-31 renal
DU-145 prostate = test system: DU-145 prostate
NCI-H322M lung = test system: NCI-H322M lung
UACC-62 melanoma = test system: UACC-62 melanoma
SW-620 colon = test system: SW-620 colon
CAKI-1 renal = test system: CAKI-1 renal
TK-10 renal = test system: TK-10 renal
SF-539 CNS = test system: SF-539 CNS
SR leukemia = test system: SR leukemia
EKVX NSCLC = test system: EKVX NSCLC
RXF 393 renal = test system: RXF 393 renal
HL-60(TB) leukemia = test system: HL-60(TB) leukemia
K-562 leukemia = test system: K-562 leukemia
NCI/ADR-RES ovarian = test system: NCI/ADR-RES ovarian
SK-MEL-5 melanoma = test system: SK-MEL-5 melanoma
ACHN renal = test system: ACHN renal
NCI-H23 lung = test system: NCI-H23 lung
SF-295 CNS = test system: SF-295 CNS
NCI-H226 lung = test system: NCI-H226 lung
786-0 renal = test system: 786-0 renal
OVCAR-4 ovarian = test system: OVCAR-4 ovarian
PC-3 prostate = test system: PC-3 prostate
NCI-H460 lung = test system: NCI-H460 lung
SK-MEL-28 melanoma = test system: SK-MEL-28 melanoma
OVCAR-3 ovarian = test system: OVCAR-3 ovarian
IGROV1 ovarian = test system: IGROV1 ovarian
HCC-2998 colon = test system: HCC-2998 colon
SF-268 CNS = test system: SF-268 CNS
NCI-H522 lung = test system: NCI-H522 lung
HCT-15 colon = test system: HCT-15 colon
HT29 colon = test system: HT29 colon
HCT-116 colon = test system: HCT-116 colon

COc1ccc2c(CSCCBr)cc(=O)oc2c1
69 µM: TGI (COLO 205 colon)
29.4 µM: TGI (NCI-H522 lung)
47.6 µM: TGI (NCI/ADR-RES ovarian)
86.9 µM: TGI (HS 578T breast)
88.2 µM: TGI (UO-31 renal)
45.4 µM: TGI (HOP-92 NSCLC)
0.0984 µM: TGI (RXF 393 renal)
49.4 µM: TGI (CAKI-1 renal)
55.5 µM: TGI (SK-MEL-2 melanoma) | TGI (U251 CNS)
70.3 µM: TGI (MOLT-4 leukemia)
93.6 µM: TGI (A498 renal)
92.4 µM: TGI (MDA-MB-435)
90.3 µM: TGI (NCI-H460 lung)
49.6 µM: TGI (RPMI-8226 leukemia)
81.8 µM: TGI (MCF7 breast)
47.5 µM: TGI (KM12 colon)
39.2 µM: TGI (SK-MEL-5 melanoma)
71.1 µM: TGI (OVCAR-4 ovarian)
75.1 µM: TGI (IGROV1 ovarian)
80.9 µM: TGI (SR leukemia)
> 100 µM: TGI (A549 NSCLC) | TGI (MDA-N) | TGI (OVCAR-5 ovarian) | TGI (CCRF-CEM leukemia) | TGI (T-47D breast) | TGI (SNB-19 CNS) | TGI (MDA-MB-231 breast) | TGI (M14 melanoma) | TGI (SN12C renal) | TGI (UACC-257 melanoma) | TGI (BT-549 breast) | TGI (DU-145 prostate) | TGI (NCI-H322M lung) | TGI (SW-620 colon) | TGI (TK-10 renal) | TGI (EKVX NSCLC) | TGI (K-562 leukemia) | TGI (SF-295 CNS) | TGI (NCI-H226 lung) | TGI (PC-3 prostate) | TGI (SK-MEL-28 melanoma) | TGI (HCC-2998 colon) | TGI (HCT-15 colon) | TGI (HT29 colon)
inactive: GI50 (A549 NSCLC) 38.2 µM | GI50 (MDA-N) 34.8 µM | GI50 (OVCAR-5 ovarian) 50.6 µM | GI50 (CCRF-CEM leukemia) 25.6 µM | GI50 (MOLT-4 leukemia) 16.4 µM | GI50 (T-47D breast) 41.6 µM | GI50 (SK-MEL-2 melanoma) 25.1 µM | GI50 (SNB-19 CNS) 56.2 µM | GI50 (RPMI-8226 leukemia) 17.7 µM | GI50 (OVCAR-8 ovarian) 21.9 µM | GI50 (COLO 205 colon) 28.5 µM | GI50 (MDA-MB-231 breast) 33.7 µM | GI50 (M14 melanoma) 54.9 µM | GI50 (HS 578T breast) 27.8 µM | GI50 (U251 CNS) 16.6 µM | GI50 (MCF7 breast) 23 µM | GI50 (HOP-92 NSCLC) 23.8 µM | GI50 (KM12 colon) 21.8 µM | GI50 (LOX IMVI melanoma) 14.8 µM | GI50 (SN12C renal) 28.8 µM | GI50 (UACC-257 melanoma) 33.4 µM | GI50 (MDA-MB-435) 27 µM | GI50 (MALME-3M melanoma) 35.8 µM | GI50 (HOP-62 NSCLC) 25.4 µM | GI50 (BT-549 breast) 43.7 µM | GI50 (A498 renal) 25.8 µM | GI50 (UO-31 renal) 29.4 µM | GI50 (DU-145 prostate) 35.3 µM | GI50 (NCI-H322M lung) 68.2 µM | GI50 (UACC-62 melanoma) 24.1 µM | GI50 (SW-620 colon) 33.5 µM | GI50 (CAKI-1 renal) 22.1 µM | GI50 (TK-10 renal) 35.6 µM | GI50 (SF-539 CNS) 17.7 µM | GI50 (SR leukemia) 21.8 µM | GI50 (EKVX NSCLC) 63.6 µM | GI50 (HL-60(TB) leukemia) 16 µM | GI50 (K-562 leukemia) 31.7 µM | GI50 (NCI/ADR-RES ovarian) 19.3 µM | GI50 (SK-MEL-5 melanoma) 19.4 µM | GI50 (ACHN renal) 21.2 µM | GI50 (NCI-H23 lung) 25.5 µM | GI50 (SF-295 CNS) 28.1 µM | GI50 (NCI-H226 lung) 20.6 µM | GI50 (786-0 renal) 19.5 µM | GI50 (OVCAR-4 ovarian) 21.9 µM | GI50 (PC-3 prostate) 35.1 µM | GI50 (NCI-H460 lung) 23.9 µM | GI50 (SK-MEL-28 melanoma) 88.7 µM | GI50 (OVCAR-3 ovarian) 16.8 µM | GI50 (IGROV1 ovarian) 22.6 µM | GI50 (HCC-2998 colon) 35.3 µM | GI50 (SF-268 CNS) 13.8 µM | GI50 (NCI-H522 lung) 13.9 µM | GI50 (HCT-15 colon) 32.4 µM | GI50 (HT29 colon) 29.6 µM | GI50 (HCT-116 colon) 15.7 µM
64.2 µM: TGI (OVCAR-8 ovarian)
90 µM: TGI (MALME-3M melanoma)
97.2 µM: TGI (HOP-62 NSCLC)
39.9 µM: TGI (786-0 renal)
41 µM: TGI (HCT-116 colon)
59 µM: TGI (UACC-62 melanoma) | TGI (ACHN renal)
32.2 µM: TGI (SF-268 CNS)
41.5 µM: TGI (OVCAR-3 ovarian)
52.2 µM: TGI (SF-539 CNS)
99.3 µM: TGI (NCI-H23 lung)
40.1 µM: TGI (HL-60(TB) leukemia)
31.7 µM: TGI (LOX IMVI melanoma)
